Reference: patent publication US20150132229A1, “BIS AZAINOSITOL HEAVY METAL COMPLEXES FOR X-RAY IMAGING” (BAYER PHARMA AKTIENGESELLSCHAFT, priority 2012, published 2015)

Assay: Stability of bis azainositol heavy metal complexes under heat sterilization (121° C., 45 min, pH 7.4; HPLC and ICP-OES)
Details: aqueous buffered solution pH 7.4, 5 mmol/L, 121° C. for 45 min in steam autoclave; absolute stability = HPLC peak area ratio x metal concentration ratio after/before

Work on “Trisodium bis{μ3-[(all-cis)-2-{[(carboxy-1κO)methyl]amino-1κN}-4-{[(carboxy-2κO)methyl]amino-2κN}-6-{[(carboxy-3κO)methyl]amino-3κN}cyclohexane-1,3,5-triolate-1κ^2O^1,O^3:2κ^2O^3,O^5:3κ^2O^1,O^5]}triytterbate(III) [Example 6]” yielded a Stability of 99%.
